This note sets out measurements from ChEMBL document CHEMBL4715748, “Synthesis and biological investigation of new equatorial (β) stereoisomers of 3-aminotropane arylamides with atypical antipsychotic profile” (Bioorg Med Chem, 2016).

Amino acid sequences for entries named in this document (tags omitted).
UniProt P19327, whole entry: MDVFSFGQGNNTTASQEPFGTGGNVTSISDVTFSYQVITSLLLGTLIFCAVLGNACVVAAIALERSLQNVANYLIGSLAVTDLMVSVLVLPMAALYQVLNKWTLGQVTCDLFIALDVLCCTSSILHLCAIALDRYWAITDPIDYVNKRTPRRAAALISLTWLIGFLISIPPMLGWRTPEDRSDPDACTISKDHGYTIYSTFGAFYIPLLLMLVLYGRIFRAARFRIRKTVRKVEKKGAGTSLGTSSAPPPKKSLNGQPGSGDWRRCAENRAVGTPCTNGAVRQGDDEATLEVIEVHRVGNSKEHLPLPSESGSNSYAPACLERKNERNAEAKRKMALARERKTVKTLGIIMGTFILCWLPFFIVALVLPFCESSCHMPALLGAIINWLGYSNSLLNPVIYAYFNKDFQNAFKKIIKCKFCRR

The structures appear in SMILES notation.

For this assay, the target named is 5-hydroxytryptamine receptor 1A (Rattus norvegicus, UniProt P19327). Nature of the assay: Displacement of [3H]-8-OH-DPAT from rat cerebral cortex 5HT1A receptor measured after 15 mins by liquid scintillation counter method. In general terms: Displacement assays read how much labelled ligand stays bound in the presence of the test substance.

As a reminder, the Ki is a dissociation constant, usually derived from enzyme kinetics or from competition with a known ligand. Low readings indicate tighter binding, high ones weaker binding.

Turning to `NCCc1c[nH]c2ccc(O)cc12` [SEROTONIN], the inhibition constant (Ki) was 2.3 nM. That is a single-digit nanomolar value.
